Data set [1] relates to OE19 cells. As to the kind of experiment: Alamar blue cell viability, OE19 cells. It counts as cell-based, human. As to conditions: HER2+ OE19 cells, Fig. 3c. In general terms: Resazurin is reduced to fluorescent resorufin, in cell work by metabolically active cells.
For data set [2] the following is noted: T-DM1 0.25 nmol day 0 with 2.5 Gy days 1, 2 and 3.

ado-trastuzumab emtansine [T-DM1]: in data set [1], the “cytotoxic potency compared with paclitaxel, cisplatin, trastuzumab, lapatinib, erlotinib” value is “more potent cytotoxic drug”. For the same substance, in data set [2], the mouse body weight entry was “maintained their weight”.

The values above are taken from article PMC5059467, “Anti-tubulin drugs conjugated to anti-ErbB antibodies selectively radiosensitize” (Nature Communications, 2016).
